Results from US11013730B1, “Composition comprising selenazol or thiazalone derivatives and silver and method of treatment therewith” (Thioredoxin Systems AB, priority 2014, dated 2021).

System: E. coli mutants gshA^−, trxA^−trxB^−trxC^−

O=c1c2ccccc2[se]n1-c1ccccc1 [EbSe 6, 2-phenyl-1,2-benzisoselenazol-3(2H)-one]
sensitivity of mutants to combination treatment (ebselen and silver, gshA^− and trxA^− trxB^− trxC^− mutants): more sensitive

O=[N+]([O-])[O-].[Ag+] [silver, Silver nitrate]
silver concentration that inhibited bacterial growth (gshA^− mutant, in the presence of 4 μM of ebselen): less than 1 μM
sensitivity of mutants compared to wild type E. coli (silver alone, gshA^− and trxA^−trxB^−trxC^−): did not exhibit a great difference
